The nature of this data set: Particle size distribution by dynamic light scattering (Zetasizer3000).

Turning to “Poly(ethylene oxide)-block-poly(caprolactone) [PEG2000-PCL2000]”, the stability upon heating entry was “higher stability”.
